From EP4821918A1, “CO-CRYSTAL FORM OF RNA M6A MODULATOR AND PREPARATION METHOD THEREFOR AND USE THEREOF” (dated 2026)

Assays:
SD rats = experiment: rat models with hand-foot skin reaction; details: for KRT1 and Loricrin in tissues: immunohistochemical staining; for KRT1 and Loricrin in tissues / stratum corneum thickness of the paw plantar skin: successfully modeled rats, modeling drug alone; for Incidence rate Left paw / Incidence rate Right paw: modeling drug alone by gavage once daily 30 days (sorafenib 100, erlotinib 70, afatinib 50, osimertinib 60 mg/kg), no compound in ointment, 12 rats; for stratum corneum thickness of the paw plantar skin: versus normal rats (FIG. 20)
ICR mice [1] = experiment: kinase inhibitor-induced mouse model with hand-foot skin reaction; details: for skin of the hind limb toes of the mice (appearance): modeling 14 days, oral gavage once daily: sorafenib 100 mg/kg, osimertinib 10 mg/kg, versus normal control (FIG. 28); for degree of swelling of the hind limb toes of the mice / epidermal layer and stratum corneum in the skin tissues of the hind limb toes: modeling drug alone; for degree of swelling of the hind limb toes of the mice: continuous oral administration 14 days (FIG. 29); for epidermal layer and stratum corneum in the skin tissues of the hind limb toes / cytokine IL-1β in the skin tissues of the hind limb toes of the mice: oral 14 days; for epidermal layer and stratum corneum in the skin tissues of the hind limb toes: pathological staining (FIG. 30); for cytokine IL-1β in the skin tissues of the hind limb toes of the mice: immunohistochemistry, p<0.05 versus normal control
ICR mice [2] = experiment: chemotherapeutic drug-induced mouse model with hand-foot syndrome; details: for skin of the hind limb toes of the mice (appearance): modeling 14 days, oral gavage once daily: capecitabine 200 mg/kg, docetaxel 25 mg/kg, versus normal control (FIG. 23); for degree of swelling of the hind limb toes of the mice / epidermal layer and stratum corneum in the skin tissues of the hind limb toes: modeling drug alone; for degree of swelling of the hind limb toes of the mice: continuous oral administration 14 days (FIG. 24); for epidermal layer and stratum corneum in the skin tissues of the hind limb toes: pathological staining (FIG. 25)
HaCaT cells = experiment: m6A methylation level of human keratinocytes (EpiQuik m6A RNA methylation quantification kit); details: 50 nM drug alone (control groups A-D), 24 hours, relative to control group 1 (DMSO)
[3] = capecitabine- or docetaxel-modeled mice, 3% ointment topical or nicotinamide 100 mg/kg oral, once daily 16 days (FIG. 25)
[4] = sorafenib- or osimertinib-modeled mice, 3% ointment topical or nicotinamide 100 mg/kg oral, once daily 16 days (FIG. 30)

| SMILES | KRT1 and Loricrin in tissues (SD rats) | Incidence rate Left paw (SD rats) | Incidence rate Right paw (SD rats) | stratum corneum thickness of the paw plantar skin (SD rats) | skin of the hind limb toes of the mice (appearance) (ICR mice [1]) | degree of swelling of the hind limb toes of the mice (ICR mice [1]) | epidermal layer and stratum corneum in the skin tissues of the hind limb toes (ICR mice [1]) | skin of the hind limb toes of the mice (appearance) (ICR mice [2]) | degree of swelling of the hind limb toes of the mice (ICR mice [2]) | epidermal layer and stratum corneum in the skin tissues of the hind limb toes (ICR mice [2]; oral 14 days) | further results |
| --- | --- | --- | --- | --- | --- | --- | --- | --- | --- | --- | --- |
| C=CC(=O)Nc1cc(Nc2nccc(-c3cn(C)c4ccccc34)n2)c(OC)cc1N(C)CCN(C)C | significantly increased | 9/12 (75%) | 9/12 (75%) | significantly higher | obvious erythema and rhagades | significant swelling of the hind limb toes of the mice was caused | significantly thickened | – | – | – | cytokine IL-1β in the skin tissues of the hind limb toes of the mice (ICR mice [1]; osimertinib alone): significantly increased |
| CNC(=O)c1cc(Oc2ccc(NC(=O)Nc3ccc(Cl)c(C(F)(F)F)c3)cc2)ccn1 | significantly increased | 9/12 (75%) | 9/12 (75%) | significantly higher | obvious erythema and rhagades | significant swelling of the hind limb toes of the mice was caused | significantly thickened | – | – | – | cytokine IL-1β in the skin tissues of the hind limb toes of the mice (ICR mice [1]; sorafenib alone): significantly increased |
| NC(=O)c1cccnc1 | – | – | – | – | – | – | – | – | – | – | infiltration of inflammatory cells in toe skin tissues (ICR mice [2]; [3]): infiltration of inflammatory cells still observed; thickening of the epidermal layer and the stratum corneum in the skin tissues (ICR mice [2]; [3]): mildly alleviated; alleviation of the swelling of the toes caused by the modeling drugs (ICR mice [2]; capecitabine- or docetaxel-modeled mice, 3% ointment topical or nicotinamide 100 mg/kg oral, once daily 16 days, p<0.05 for ointment): it was not observed that oral administration of nicotinamide at 100 mg/kg significantly alleviated the swelling; expression level of cytokine IL-8 in the skin tissues of the hind limb toes of the mice (ICR mice [2]; capecitabine-modeled mice, 3% ointment topical or nicotinamide 100 mg/kg oral, once daily 16 days): didn't have a significant impact; expression level of cytokine IL-6 in the skin tissues of the hind limb toes of the mice (ICR mice [2]; docetaxel-modeled mice, 3% ointment topical or nicotinamide 100 mg/kg oral, once daily 16 days): didn't have a significant impact; expression level of cytokine IL-1β in the skin tissues of the hind limb toes of the mice (ICR mice [1]; osimertinib-modeled mice, 3% ointment topical or nicotinamide 100 mg/kg oral, once daily 16 days): didn't have a significant impact; alleviation of the swelling of the toes caused by the modeling drugs (ICR mice [1]; sorafenib- or osimertinib-modeled mice, 3% ointment topical or nicotinamide 100 mg/kg oral, once daily 16 days): it was not observed that oral administration of the nicotinamide at 100 mg/kg significantly alleviated the swelling; infiltration of inflammatory cells in toe skin tissues (ICR mice [1]; [4]): infiltration of inflammatory cells still observed; thickening of the epidermal layer and the stratum corneum in the skin tissues (ICR mice [1]; [4]): didn't significantly alleviate; expression level of cytokine IL-1β in the skin tissues of the hind limb toes of the mice (ICR mice [1]; sorafenib-modeled mice, 3% ointment topical or nicotinamide 100 mg/kg oral, once daily 16 days): didn't have a significant impact |
| CCCCCOC(=O)Nc1nc(=O)n([C@@H]2O[C@H](C)[C@@H](O)[C@H]2O)cc1F | – | – | – | – | – | – | – | obvious erythema, rhagades, and blisters | swelling of the hind limb toes of the mice was caused | significantly thickened | cytokine IL-8 in the skin tissues of the hind limb toes of the mice (ICR mice [2]; capecitabine alone, oral 14 days, immunohistochemistry, p<0.05 versus normal control): significantly increased; m6A fold change (HaCaT cells; listed as capecitabine): significantly increase |
| C#Cc1cccc(Nc2ncnc3cc(OCCOC)c(OCCOC)cc23)c1 | significantly increased | 10/12 (83.3%) | 10/12 (83.3%) | significantly higher | – | – | – | – | – | – | successful modeling rates for the hand-foot skin reaction (SD rats; SD rats, once daily by gavage: sorafenib 100, erlotinib 70, afatinib 50, osimertinib 60 mg/kg): 83.3% |
| CC(=O)O[C@@]12CO[C@@H]1C[C@H](O)[C@@]1(C)C(=O)[C@H](O)C3=C(C)[C@@H](OC(=O)[C@H](O)[C@@H](NC(=O)OC(C)(C)C)c4ccccc4)C[C@@](O)([C@@H](OC(=O)c4ccccc4)[C@H]21)C3(C)C | – | – | – | – | – | – | – | obvious erythema, rhagades, and blisters | swelling of the hind limb toes of the mice was caused | significantly thickened | cytokine IL-6 in the skin tissues of the hind limb toes of the mice (ICR mice [2]; docetaxel alone, oral 14 days, immunohistochemistry, p<0.05 versus normal control): significantly increased; m6A fold change (HaCaT cells; listed as docetaxel): significantly increase |
